Values quoted from earlier work, collected in patent EP1156371A2, “Replenishing method of planographic printing plate developer” (FUJI PHOTO FILM CO., LTD., priority 2000, dated 2001).

Conditions: dissociation constant of weak acid, aqueous solution

OCC(Cl)(Cl)Cl [trichloroethanol]
pKa: 12.24
